Source: ChEMBL document CHEMBL1129297 (J Med Chem, 1996)

The chains behind the UniProt entries cited, without tags or fusion partners. Where a name states a change or a piece, a line headed by the entry shows the natural chain unless it says otherwise.
UniProt P28221: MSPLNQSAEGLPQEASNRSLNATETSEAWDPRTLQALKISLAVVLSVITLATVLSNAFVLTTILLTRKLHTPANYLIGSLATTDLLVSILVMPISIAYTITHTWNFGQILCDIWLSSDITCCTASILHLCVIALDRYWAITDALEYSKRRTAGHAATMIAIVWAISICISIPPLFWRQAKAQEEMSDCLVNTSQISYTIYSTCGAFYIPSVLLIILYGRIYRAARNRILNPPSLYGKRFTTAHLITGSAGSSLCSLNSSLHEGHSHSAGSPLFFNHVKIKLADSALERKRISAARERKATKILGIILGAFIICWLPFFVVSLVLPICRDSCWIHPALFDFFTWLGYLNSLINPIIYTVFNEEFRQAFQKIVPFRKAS

Target: 5-hydroxytryptamine receptor 1D (Homo sapiens, UniProt P28221)
Test: Selectivity towards 5-hydroxytryptamine 1D receptor beta to that of 5-hydroxytryptamine 1D receptor alpha

`COc1ccc2[nH]cc(CCN)c2c1` [5-METHOXYTRYPTAMINE] gave a Ki of 5.4 nM.
